## Apparent affinities of Ab-14 variants for a coronavirus HR2 peptide

Antigen: PDVDLGDISGINAS, a 14-residue peptide of the SARS-CoV-2 spike HR2 region.

Each scFv is VH, a 15-residue (Gly4Ser)3 linker, VL, as in the parent Ab-14, and differs from it in the CDRs of the light chain only.
VH: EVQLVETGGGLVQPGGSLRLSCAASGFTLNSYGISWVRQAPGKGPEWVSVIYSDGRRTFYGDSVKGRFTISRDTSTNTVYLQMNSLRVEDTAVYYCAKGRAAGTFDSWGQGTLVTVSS
VL: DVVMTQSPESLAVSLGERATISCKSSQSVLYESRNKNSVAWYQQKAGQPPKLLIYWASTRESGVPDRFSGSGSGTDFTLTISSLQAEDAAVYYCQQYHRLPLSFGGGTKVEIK

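The variants were designed computationally from a first round of random CDR variants and then made and measured. Their group label is 14L_En_Gen (En: ensemble of fine-tuned language models; Gen: genetic algorithm). In AlphaSeq, yeast of one mating type display the scFv and yeast of the other type display the target. Pairs that bind mate more often; barcode pairs of the diploids are counted by sequencing. A regression on co-assayed BCL2-family reference pairs converts the normalised counts of each replicate to an apparent Kd. The assay was run in six technical replicates.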

Each variant is given by its three light chain CDRs, as the data file delimits them; those of the parent are KSSQSVLYESRNKNSVA, WASTRES, QQYHRLPLS.
Scale: log10 of Kd in nM, estimated from mating counts; low values are strong binders.
A mean of the replicates is given; it leaves out those without a signal.
An entry "nd" has no value in the source: the pair was not observed among the diploids in that replicate. This suggests poor binding but is not conclusive.
Values of this round are not directly comparable with the first-round values of the same sequences.
As a blank, each scFv also met three strains without target: over all light chain designs, 4% of these pairings were detected, typically at 2.64 and seldom below 1.59. For each scFv, signals with the empty controls are counted beside the result, with their mean in brackets.
The parent sequence was in this pool as ten entries: three were never detected, three once, and four in most replicates, with averages from 0.34 to 2.37.
The authors' rule: three or more of the six replicates give a measured affinity, fewer mean a poor binder.

CDR-L1 | CDR-L2 | CDR-L3 | log10 Kd, replicates | mean log10 Kd (nM) | control signals
TIQQLMSLFSQTINNVA | EVSLREK | QQYDRLPLA | nd / nd / nd / nd / 1.90 / nd | 1.90 | 0/18
KLSMVTGHMSMAKNNVA | EMVTREE | QQYNRLPLS | 0.31 / 0.14 / 0.00 / 0.13 / 0.13 / 0.26 | 0.16 | 2/18 (2.77)
SISGFMKSLSAHINNVA | DMTNRED | QQYDRLPLS | 0.67 / 0.71 / 0.52 / 0.39 / 0.50 / 0.89 | 0.61 | 1/18 (3.73)
MVSQLMLWGLHAKNSIA | EAVTRYN | QQYDRLPLM | nd / nd / nd / nd / 1.61 / nd | 1.61 | 0/18
IVSQLMLWGMHAKNSIA | EAQTRVN | QQYDRLPLI | 0.75 / 1.06 / 0.86 / 0.48 / 0.65 / 0.53 | 0.72 | 0/18
MLGDVAHGLSRKENSVA | DNDTRED | QQYDRLPLS | 1.71 / 2.03 / 1.67 / 2.11 / 1.98 / 2.20 | 1.95 | 2/18 (2.38)
KIGMTLNQLEHKKNNVA | DLVERAN | QQYFRLPLS | 0.09 / 0.31 / 0.17 / 0.03 / 0.26 / 0.25 | 0.19 | 3/18 (2.35)
MISQLYNMGSFAINSVA | QASIRNA | QQYDRLPLA | nd / 1.50 / 1.21 / 1.22 / 1.11 / 0.96 | 1.20 | 0/18
MISQVMNTLTRQGNNVA | DLQNREN | QQYFRLPLS | nd / nd / 1.30 / 1.47 / 2.84 / 1.72 | 1.83 | 0/18
KISQMVRVGSTVSNSIA | EEVTRAK | QQYHRLPLS | 0.75 / 0.34 / 0.31 / 0.39 / 0.55 / 0.93 | 0.55 | 0/18
TISGMTNQAQMKSNSVA | NVTLRPD | QQYHRLPLS | 0.80 / 1.51 / 0.78 / 1.46 / 0.86 / 0.89 | 1.05 | 2/18 (3.02)
KIGATLNTLMHQKNNVA | DLVEREN | QQYHRLPLS | 1.61 / 0.85 / 1.13 / 2.64 / 0.57 / 0.41 | 1.20 | 1/18 (2.26)
MVSQLMMWGLHAKNSIA | EAVTRYN | QQYDRLPLF | nd / nd / nd / 1.82 / nd / 2.43 | 2.13 | 0/18
IVSQLMLWGMHARNSIA | EAVTRLN | QQYDRLPLF | 1.12 / 1.08 / 1.20 / 1.14 / 1.67 / 1.31 | 1.25 | 0/18
TISMHTSLFSQTINNVA | EVSMREP | QQYDRLPLM | 0.79 / 0.56 / 0.87 / 0.71 / 0.61 / 0.84 | 0.73 | 1/18 (2.18)
KIGMTLNTLEHKQNNVA | DLVTREN | QQYFRLPLS | 0.52 / 0.05 / 0.57 / 0.03 / 0.40 / 0.67 | 0.37 | 0/18
TLYGLSVSMSKNTNSVA | EMTTREK | QQYDRLPLV | 1.19 / 0.96 / 1.05 / 1.09 / 1.31 / 1.52 | 1.19 | 1/18 (2.90)
TLYGLSNSMSKNKNNVA | EMSTREP | QQYDRLPLQ | 0.84 / 0.50 / 0.75 / 0.55 / 0.58 / 0.65 | 0.64 | 1/18 (3.28)
KVSEFMRGLMMRTDSIA | DNQTRES | QQYDRLPLS | nd / 2.30 / nd / 3.64 / 3.22 / nd | 3.05 | 2/18 (3.68)
TLSNMSGLEAVKHNNVA | ENSTREK | QQYDRLPLT | 1.48 / 2.15 / 2.12 / nd / 2.25 / 2.17 | 2.03 | 1/18 (2.13)
MVTQMAMTGMKNKRSVA | NAETREY | QQYHHLPLI | 1.66 / 1.31 / 1.22 / 1.24 / 1.61 / 1.02 | 1.34 | 0/18
KISMVMENQLKNRNSVA | ELVTRVN | QQYARLPLS | 0.95 / 0.67 / 0.83 / 0.36 / 0.37 / 0.66 | 0.64 | 0/18
HISMLTLQGMRQRNSVA | QMTTREN | QQYDRLPLS | 0.47 / 1.10 / 0.75 / 0.76 / 0.67 / 0.60 | 0.72 | 0/18
KLGATMNTEMTKRNNVA | DLVNREN | QQYFRLPLS | 0.42 / -0.39 / -0.18 / -0.09 / 0.35 / 0.22 | 0.05 | 0/18
KVSGFMRGLMERKDSIA | DNETRSN | QQYDRLPLS | 1.31 / 1.41 / 1.28 / 1.37 / 1.10 / 1.53 | 1.33 | 1/18 (4.11)
MIGQVAFGLSRKANSVA | DNSTREN | QQYDRLPLS | nd / 3.02 / nd / 1.82 / 2.31 / nd | 2.38 | 1/18 (1.90)
KIGMTLNFLEHKQNNVA | DLVTREN | QQYHRLPLS | 1.14 / 1.40 / 0.73 / 1.66 / 1.16 / 1.12 | 1.20 | 0/18
MLSQMWALGQKAKNSVA | QASMRFN | QQYDRLPLI | nd / 2.31 / 2.59 / 1.77 / 2.21 / 2.27 | 2.23 | 1/18 (3.79)
KLYDMAAVTMNNIRNVA | DNDNRED | QQYHRLPLS | 0.12 / 0.29 / 0.09 / 0.64 / 0.25 / 0.57 | 0.33 | 0/18
NISGFMKTLSAHINNVA | DMTNRED | QQYDRLPLS | 0.35 / 0.49 / 0.42 / 0.44 / 0.21 / 0.62 | 0.42 | 2/18 (1.60)
QISGIQGHMSTIKNNVA | EMVTRAN | QQYDRLPLS | nd / 1.91 / 1.41 / nd / nd / 2.09 | 1.80 | 1/18 (2.42)
HMSMLTLQGMRHMNSVA | QMTTRVN | QQYDRLPLM | 1.23 / 0.85 / 0.89 / 0.92 / 1.20 / 0.65 | 0.96 | 1/18 (2.78)
MISQVLNMATKTGNNVA | DLQEREN | QQYFRLPLS | 1.13 / 1.62 / 1.56 / 1.44 / 2.10 / 0.82 | 1.45 | 2/18 (3.13)
KIGMTLNQLYQKNNNVA | DLVERED | QQYHRLPLS | 0.85 / 0.46 / 0.55 / 0.64 / 0.50 / 0.74 | 0.62 | 0/18
KITATMRFEQKNSNNIA | EVSMRTK | QQYVRLPLA | 0.87 / 0.75 / 1.53 / 0.79 / 0.97 / 0.92 | 0.97 | 0/18
KITQTMRFEQKASNNIA | EVTLRSK | QQYYRLPLS | 0.83 / 0.67 / 0.80 / 1.04 / 0.98 / 1.19 | 0.92 | 2/18 (2.63)
IVSQLMLWGHLAKNSIA | EAETRLN | QQYDRLPLF | 1.57 / 0.93 / 0.11 / 0.46 / 1.43 / 0.73 | 0.87 | 2/18 (2.82)
KVSMLINMTFEESNNVA | EMVTREK | QQYNRLPLS | nd / 0.72 / nd / nd / 2.09 / nd | 1.41 | 0/18
HITYGMQVAGRHSSSIA | QAEERAK | QQYDRLPLA | 0.44 / 0.12 / 0.88 / 0.33 / 0.20 / 0.63 | 0.43 | 1/18 (2.78)
HMSAITLGGMRARNSVA | QMTTREN | QQYDRLPLA | 0.93 / 0.30 / 0.48 / 0.30 / 0.43 / 0.62 | 0.51 | 1/18 (1.94)
MVSQLMLWGLHAKNSIA | EAEHRCN | QQYDRLPLF | 1.25 / 2.01 / 1.34 / 1.92 / 1.59 / 1.99 | 1.68 | 0/18
MMSQVTGYGTRMRNNVA | QTSTREA | QQYDRLPLI | 1.31 / 1.29 / 1.11 / 1.63 / 1.15 / 1.67 | 1.36 | 1/18 (1.82)
MVYQAVMMGTATRNSIA | NAEMRPD | QQYHRLPLI | 0.77 / 0.59 / 0.54 / 0.31 / 1.34 / 1.16 | 0.79 | 0/18
MISQVMNTLTRTGNNVA | DLAERED | QQYFRLPLS | nd / nd / nd / 0.73 / 1.41 / nd | 1.07 | 0/18
MISQLYNMGTFAINSVA | QASLRCN | QQYDRLPLM | nd / nd / nd / nd / nd / nd | nd | 0/18
KLTMITGLEKVSKNNVA | EMETRVQ | QQYNRLPLS | 0.39 / 0.19 / -0.12 / 0.27 / 0.06 / 0.05 | 0.14 | 0/18
MLSQVWGMGQRHRNNVA | QTSTREP | QQYDRLPLI | 1.60 / 2.05 / 1.61 / 1.46 / 1.44 / 1.81 | 1.66 | 0/18
KLGMTLNELMMKKNNVA | DLVTREN | QQYHRLPLS | 0.22 / 0.26 / 0.09 / 0.00 / -0.06 / 0.22 | 0.12 | 2/18 (2.31)

Data: MIT Lincoln Laboratory AlphaSeq set, Li et al. 2023, doi:10.1038/s41467-023-39022-2, as distributed in FLAb.